# Measured affinities in a library of Ab-95 light chain variants

Data: MIT Lincoln Laboratory AlphaSeq set, Engelhart et al. 2022, doi:10.1038/s41597-022-01779-4, as distributed in FLAb.

Binding partner: SARS-CoV-2 spike HR2 peptide, sequence PDVDLGDISGINAS.

Ab-95 is the parent antibody, in scFv form: VH, then three GGGGS repeats, then VL. The heavy chain is unchanged in all variants.
VH: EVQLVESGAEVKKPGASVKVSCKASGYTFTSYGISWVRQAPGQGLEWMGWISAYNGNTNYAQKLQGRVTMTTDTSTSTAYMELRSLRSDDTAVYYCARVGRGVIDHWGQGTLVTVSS
VL: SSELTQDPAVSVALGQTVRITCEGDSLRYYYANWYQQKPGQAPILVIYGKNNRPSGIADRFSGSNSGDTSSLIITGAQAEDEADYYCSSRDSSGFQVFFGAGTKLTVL

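Library AAYL52 holds single substitutions and randomly drawn double and triple substitutions in the CDRs. The assay is AlphaSeq: two haploid yeast populations carry antibody and antigen on their surface. Mating (16 h, 30 °C) was followed by selection of diploids and sequencing of their barcodes. Each replicate has its own calibration line, from reference interactions of the BCL2 family. Mating was done three times.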

The whole VL of each variant is written out. The read-out is the apparent dissociation constant on a log10 scale (nM): the lower, the stronger. "ND" means that the variant was in the library but no mating with the target was seen in that replicate; the authors take this as a sign of poor binding, and no number exists. Empty control strains, which show no peptide, gave a signal in 28% of pairings with library AAYL52; the median was 3.91 and 95% of these signals were weaker than 2.90. No background was subtracted.

log10 Kd, replicates	VL
ND / ND / ND	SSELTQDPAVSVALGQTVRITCEGDSLRYYAENWYQQKPGQAPILVIYGKNNRDSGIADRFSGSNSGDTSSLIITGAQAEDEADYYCSSRDSSGFQVFFGAGTKLTVL
ND / ND / ND	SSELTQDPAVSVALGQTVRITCEGDHLRYYLANWYQQKPGQAPILVIYGKNNCPSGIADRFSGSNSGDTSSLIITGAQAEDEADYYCSSRDSSGFQVFFGAGTKLTVL
4.64 / ND / ND	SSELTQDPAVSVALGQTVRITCEGDFLRYYYANWYQQKPGQAPILVIYGRNNRPCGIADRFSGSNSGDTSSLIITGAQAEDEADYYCSSRDSSGFQVFFGAGTKLTVL
ND / ND / ND	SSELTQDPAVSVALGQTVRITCEGDSIRYYYANWYQQKPGQAPILVIYTKNNRPSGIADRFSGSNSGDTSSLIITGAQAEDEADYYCSSRDSSGFLVFFGAGTKLTVL
4.42 / 4.83 / ND	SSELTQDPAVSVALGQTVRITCEGDSLRYYYANWYQQKPGQAPILVIYMKNNRPPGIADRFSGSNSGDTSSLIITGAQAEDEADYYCSSRTSSGFQVFFGAGTKLTVL
3.88 / 2.89 / 3.62	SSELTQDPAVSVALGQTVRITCEGDSLTYYFANWYQQKPGQAPILVIYGMNNRPSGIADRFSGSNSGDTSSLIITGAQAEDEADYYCSSRDSSGFQVFFGAGTKLTVL
4.46 / 3.30 / 3.21	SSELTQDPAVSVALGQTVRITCEGDSLRYYYANWYQQKPGQAPILVIYGKDNRPSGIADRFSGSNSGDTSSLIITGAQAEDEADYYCSSRDPSGFQVFFGAGTKLTVL
3.76 / 3.18 / ND	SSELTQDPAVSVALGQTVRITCEGDSLRYYYANWYQQKPGQAPILVIYGKKNRPSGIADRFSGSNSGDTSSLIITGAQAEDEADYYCSSRSSSGFQVYFGAGTKLTVL
5.53 / 3.96 / ND	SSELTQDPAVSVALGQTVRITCEGDSLRYYYAPWYQQKPGQAPILVIYGKNNRPSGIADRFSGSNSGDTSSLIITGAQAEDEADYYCSSRDSSGFQLNFGAGTKLTVL
2.49 / 2.33 / 2.75	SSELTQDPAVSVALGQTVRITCEGDSLRYYYANWYQQKPGQAPILVIYGDNNRPGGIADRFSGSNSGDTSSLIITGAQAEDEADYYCSSRDSSGFQVFFGAGTKLTVL
3.37 / 2.63 / 3.39	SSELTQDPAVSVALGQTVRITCEGDSLRHYYANWYQQKPGQAPILVIYGKNNRPSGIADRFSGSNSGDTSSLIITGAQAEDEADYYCSSRDSSGDQVFFGAGTKLTVL
3.50 / 3.36 / 3.71	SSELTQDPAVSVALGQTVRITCEGDSLRQYYANWYQQKPGQAPILVIYGCNNRPSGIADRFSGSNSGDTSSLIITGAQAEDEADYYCSSRDSNGFQVFFGAGTKLTVL
ND / 3.92 / 3.81	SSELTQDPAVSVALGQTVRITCEGDSLRYYYANWYQQKPGQAPILVIYGKEPRPSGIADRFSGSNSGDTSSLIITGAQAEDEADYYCSGRDSSGFQVFFGAGTKLTVL
1.97 / 1.93 / 2.49	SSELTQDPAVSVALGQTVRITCEGDSLRYYYANWYQQKPGQAPILVIYGKNNRPVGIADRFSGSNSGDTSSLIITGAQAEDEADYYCSSRDKSGFQQFFGAGTKLTVL
ND / ND / ND	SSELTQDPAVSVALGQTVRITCEADSLRYYYANWYQQKPGQAPILVIYGKNNRCYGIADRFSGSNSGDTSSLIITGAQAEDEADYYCSSRDSSGFQVFFGAGTKLTVL

A selection of 2 entries from above:

| VL | log10 Kd, replicates |
|---|---|
| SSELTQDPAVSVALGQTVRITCEADSLRYYYANWYQQKPGQAPILVIYGKNNRCYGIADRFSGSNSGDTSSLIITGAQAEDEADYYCSSRDSSGFQVFFGAGTKLTVL | ND / ND / ND |
| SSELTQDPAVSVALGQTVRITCEGDHLRYYLANWYQQKPGQAPILVIYGKNNCPSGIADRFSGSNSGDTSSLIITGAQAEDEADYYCSSRDSSGFQVFFGAGTKLTVL | ND / ND / ND |